Reference: patent US6080871A, “Sulfonamides and sulfamides as H3 receptor antagonists” (James Black Foundation Limited, priority 1996, dated 2000)

Chains of the proteins cited; added tags and fusions are not shown. Lines headed by an entry give the natural chain unless they say otherwise; changes in a name come on top.
UniProt Q9JI35: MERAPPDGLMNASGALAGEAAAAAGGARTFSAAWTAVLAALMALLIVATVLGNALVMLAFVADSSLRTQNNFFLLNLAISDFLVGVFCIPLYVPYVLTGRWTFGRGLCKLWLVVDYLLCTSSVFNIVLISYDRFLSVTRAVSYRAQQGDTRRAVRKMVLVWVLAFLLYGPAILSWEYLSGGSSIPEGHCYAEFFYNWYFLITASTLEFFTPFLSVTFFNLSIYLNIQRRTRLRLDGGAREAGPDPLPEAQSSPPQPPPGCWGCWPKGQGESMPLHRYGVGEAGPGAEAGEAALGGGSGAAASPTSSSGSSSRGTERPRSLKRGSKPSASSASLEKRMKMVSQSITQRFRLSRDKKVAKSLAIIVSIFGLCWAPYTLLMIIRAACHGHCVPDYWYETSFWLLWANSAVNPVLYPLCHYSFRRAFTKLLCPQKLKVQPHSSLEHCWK

What was measured:
[1] = target: T1, H3 receptor (Cavia porcellus, UniProt Q9JI35); experiment: H3 receptor bioassay (functional assay), guinea pig ileal longitudinal muscle myenteric plexus; assay type: cell-based; details: antagonism of R-(α)-methylhistamine E/[A] curve, Schild's methods; electrically stimulated guinea pig ileum; variance ±0.15 log units; read-out: pKB (functional assay) (converted)
T1 construct: the longitudinal muscle layer and adhering myenteric plexus was teased away; from tissue; host or cells: ileal longitudinal muscle with adhering myenteric plexus of male Dunkin-Hartley guinea pigs
Description: The biological activity of the compounds of the examples was measured using the ileal longitudinal muscle, myenteric plexus assay described by Paton and Aboo Zar (J. Physiol. 194, 13-33 (1968)). Male Dunkin-Hartley guinea pigs (250-300 g) were employed. Briefly, a 50 cm portion of ileum proximal to the caecum was removed, after discarding the terminal 20 cm. Ileal segments (3 cm) were cleaned by passing Krebs-Henseleit buffer containing 3 μM mepyramine gently through the ileum using a Pasteur pipette (size: 13.8 cm length, 0.65 cm diameter). To avoid unnecessary damage to the tissue, Krebs-Henseleit buffer was passed through the ileal segment, while it was lying horizontally on a petri dish. Therefore, the ileum was not over-distended and the buffer flowed through with ease. Each segment was then passed over a Pasteur pipette and the longitudinal muscle layer and adhering myenteric plexus was teased away using moist cotton wool, by stroking tangentially away from the mesenteric attachment. […] All measurements were recorded isometrically (Grass FTO3 transducer). […] The experimental E/[A] curve data was expressed as the percentage inhibition of the peak height of electrically-stimulated contraction. Antagonist affinity values were calculated from the degree of rightward shift of the R-(α)-methylhistamine E/[A] curves using Schild's methods (Arunlatcshama & Schild, 1949). […]

[2] = target: T2, Histamine H3 (Cavia porcellus, UniProt Q9JI35); experiment: Histamine H3 radioligand binding assay, [3H]-R-α-methylhistamine, guinea pig ileum longitudinal muscle myenteric plexus membranes; details: 3 nM [3H]-R-α-methylhistamine, 165 min, 21±3° C., Cheng Prusoff; variance ±0.12 log units
T2 construct: ileum longitudinal muscle myenteric plexus membranes; from tissue; host or cells: ileum longitudinal muscle myenteric plexus membranes of male Dunkin Hartley guinea pigs
Description: Histamine H3 Radioligand Binding Assay
Male Dunkin Hartley guinea pigs (200-300 g) were used. The small intestine was rapidly removed (cut ~5 cm from caecum and 5 cm from stomach) and placed in ice-cold 20 mM Hepes-NaOH buffer (pH7.4 at 21±3° C.). The tissue was cut into ~10 cm segments, flushed through with ice-cold 20 mM Hepes-NaOH buffer and placed in a beaker containing fresh buffer at 4° C. 10 cm segments of ileum were threaded onto a glass pipette and the longitudinal muscle myenteric plexus was peeled away from the circular muscle using damp cotton-wool. Longitudinal muscle myenteric plexus was immediately placed in ice-cold Viaspan® solution (~100 ml for tissue from 3 guinea pigs) and placed in the refrigerator for 24 hours. […]
Guinea pig ileum longitudinal muscle myenteric plexus membranes (400 μl) were incubated for 165 min at 21±3° C. in a final volume of 500 μl with 20 mM Hepes-NaOH buffer containing [^3 H]-R-α-methylhistamine (50 μl; 3 nM) and competing compound. […] The filters were washed (3×3 ml) with ice-cold 50 mM Tris-HCl (pH6.9 at 21±3° C.), transferred into scintillation vials, 5 ml liquid scintillation cocktail was added and after 4 hours the bound radioactivity was determined by counting (4 min) in a Beckman liquid scintillation counter.
Data are analysed using GraphPad prism and the general equation for a competition curve with variable Hill slope (nH). […]

Question: Which results are given for `O=S(=O)(Cc1ccccc1)NCCc1c[nH]cn1` [Example 21, N-[2-(4(5)-Imidazoyl)ethyl]-phenylmethanesulfonamide]?
Answer: Kb [1]: > 10 µM; pK1 (binding assay) [2]: 5.54
